The test addresses A2AR(Nb6E) (Homo sapiens, UniProt P29274). Briefly: cAMP dose-response in HEK cells expressing A2AR. It is filed as cell-based. The following applies: read-out: EC50 (cAMP), cAMP-responsive luciferase, sigmoidal dose-response, variable slope.

This is an account of results in PMC10200341 (Bioconjugate chemistry, 2022).

The term EC50 denotes the midpoint of the concentration-response curve. As to “CGS-1(NO2): conjugate of CGS21680 with crosslinking peptide prepared by copper-catalyzed click chemistry (QADQCAAELARQIS; K7A is printed; Cys at position 5 is inferred: the text gives position 5 or 14, and the matched control is named A5; A further change at position 11 cannot be ex)”, the EC50 is 40 to 60 nM.
